Experimental findings from PubChem BioAssay AID1766 (National Center for Advancing Translational Sciences (NCATS), 2009) are described below.

SMILES strings stand for the structures. The list shows a part of the results, in another mix than the full data. Records with an inconclusive call do not appear. Active and inactive are the calls of the source. The call rests on the fitted dose curve; in most records, active means well fitted curve in the direction sought with a large enough effect in the polarisation (not every such curve was filed as active); inconclusive means small, poorly fitted or top-dose-only effect, or effect the other way, or a change in a side signal; inactive means no such curve, though single readings can be large or run the other way; the % refers to the polarisation.

This assay in a line: qHTS Assay for Inhibitors Targeting the Menin-MLL Interaction in MLL Related Leukemias: Competition With Fluorescein Labeled MLL-derived Peptide. Further: % of control where 0% means no effect. Particulars: Fluorescence polarization, fluorescein-MLL peptide displacement from menin; at 61.4 µM (top of the series).
Take `CN(C(=O)Cc1ccc(Cl)c(Cl)c1)[C@H]1CCCC[C@@H]1N1CCCC1`: the FP activity change is inactive: 4.82%.
